Key:
D(2) dopamine receptor [1] = target: T1, D(2) dopamine receptor (Rattus norvegicus, UniProt P61169); assay: Inhibitory concentration required for displacing radioligand [3H]SPI from DA D-2 receptor
D(2) dopamine receptor [2] = target: T1, D(2) dopamine receptor; assay: Compound was evaluated for binding affinity towards DA D-2 receptor using radioligand [3H]SPI

Amino acid sequences for entries named in this document (tags omitted).
UniProt P61169, whole entry: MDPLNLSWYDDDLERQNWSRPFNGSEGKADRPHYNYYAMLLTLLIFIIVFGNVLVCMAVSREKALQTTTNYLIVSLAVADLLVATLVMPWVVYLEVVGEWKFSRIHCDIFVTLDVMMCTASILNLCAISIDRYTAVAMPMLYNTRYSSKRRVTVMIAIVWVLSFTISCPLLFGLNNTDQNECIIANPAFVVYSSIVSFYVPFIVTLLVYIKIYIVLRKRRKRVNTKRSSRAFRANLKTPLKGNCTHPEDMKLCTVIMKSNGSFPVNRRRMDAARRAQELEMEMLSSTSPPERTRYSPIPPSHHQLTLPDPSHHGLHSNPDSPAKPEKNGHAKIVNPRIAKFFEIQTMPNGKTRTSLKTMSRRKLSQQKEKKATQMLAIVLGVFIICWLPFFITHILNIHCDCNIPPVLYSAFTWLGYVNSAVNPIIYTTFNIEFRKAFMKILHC

IC50 (D(2) dopamine receptor [1]): 820 nM
Ki (D(2) dopamine receptor [2]): 104 nM
Structure (SMILES): CCN(CC)CCNC(=O)c1cc(Cl)c(N)cc1OC [METOCLOPRAMIDE]
